Measurements published in patent US5932555A, “Terpenoid compound 0406TP-1” (priority 1997, dated 1999).

Tested on: CDF1 mice
Assay: Repeated administration toxicity test (intraperitoneal)
Assay type: in vivo, mouse (CDF1)
Conditions: for Number of survived animals, Day 4 / Number of survived animals, Day 5 / Number of survived animals, Day 6 / Number of survived animals, Day 7 / Number of survived animals, Day 8 / Number of survived animals, Day 10: of 10
Method: As the comparative control, test solutions of adriamycin were prepared in the same manner. […] The number with time of survived animals after administration and the average body weights on Days 0, 5, and 10 were determined.

`COC(CC1C(C)=CCC2C1(C)CCC1C(C)(C)C(O)C(OC3OC(C)C(OC(=O)c4cccc(O)c4)C(OC4OC(CO)C(O)C(O)C4NC(C)=O)C3O)CC12C)C(N)C(=O)O` (stereo not drawn) [0406TP-1] was tested, and the “Number of survived animals, Day 4” value (1 mg/kg/day i.p. × 10 days) was 10, the “Number of survived animals, Day 5” value (1 mg/kg/day i.p. × 10 days) was 10 and the “Number of survived animals, Day 6” value (1 mg/kg/day i.p. × 10 days) was 10. The “Number of survived animals, Day 7” value (1 mg/kg/day i.p. × 10 days) was 10, the “Number of survived animals, Day 8” value (1 mg/kg/day i.p. × 10 days) was 10 and the “Number of survived animals, Day 10” value (1 mg/kg/day i.p. × 10 days) was 10. The “Number of survived animals, Day 4” value (5 mg/kg/day i.p. × 10 days) was 10, the “Number of survived animals, Day 5” value (5 mg/kg/day i.p. × 10 days) was 10 and the “Number of survived animals, Day 6” value (5 mg/kg/day i.p. × 10 days) was 10. For the same compound, the “Number of survived animals, Day 7” value (5 mg/kg/day i.p. × 10 days) was 10, the “Number of survived animals, Day 8” value (5 mg/kg/day i.p. × 10 days) was 10 and the “Number of survived animals, Day 10” value (5 mg/kg/day i.p. × 10 days) was 10. The “Number of survived animals, Day 4” value (10 mg/kg/day i.p. × 10 days) was 10, the “Number of survived animals, Day 5” value (10 mg/kg/day i.p. × 10 days) was 10 and the “Number of survived animals, Day 6” value (10 mg/kg/day i.p. × 10 days) was 10. The “Number of survived animals, Day 7” value (10 mg/kg/day i.p. × 10 days) was 10, the “Number of survived animals, Day 8” value (10 mg/kg/day i.p. × 10 days) was 10 and the “Number of survived animals, Day 10” value (10 mg/kg/day i.p. × 10 days) was 10. The “survival in repeated administration” value (i.p. 10 days, in words) was “survived”, the “growth / body weight in repeated administration” value (i.p. 10 days, in words, vs control) was “normal increase in body weight” and the toxicity and safety (repeated administration, in words) was “low toxicity”.
